Literature values as cited in PMC11449996 (Clinical Pharmacokinetics, 2024).

System: Staphylococcus aureus isolates
Conditions: neutropenic murine thigh infection model; cited from earlier work

CN[C@H]1C(=O)N[C@@H]2Cc3ccc(cc3)Oc3cc4cc(c3O[C@@H]3O[C@H](C(=O)O)[C@@H](O)[C@H](O)[C@H]3NC(=O)CCCCCCCCC(C)C)Oc3ccc(cc3Cl)[C@@H](O)[C@@H]3NC(=O)[C@H](NC(=O)[C@@H]4NC(=O)[C@@H](NC2=O)c2cc(cc(O)c2Cl)Oc2cc1ccc2O)c1ccc(O)c(c1)-c1c(O[C@H]2O[C@H](CO)[C@@H](O)[C@H](O)[C@@H]2O)cc(O)cc1[C@@H](C(=O)NCCCN(C)C)NC3=O [dalbavancin, Dalbavancin]
fAUC24/MIC ratio associated with a 2-log kill: > 111.1
